Assay results from paper PMC6400076 (Frontiers in Microbiology, 2019).

System: O=P(O)(O)O
Test: purified protein
Details: 2 mM NAD+, 50 mM G3P, pH 8.5, 25°C

Q: How did the Km turn out when “SpGAPDH (Streptococcus pyogenes MGAS8232)” was run?
A: 2900 ± 200 µM

Q: And the Vmax?
A: 2.07e+06 µM/min/mg

Q: And the kcat?
A: 3450 s⁻¹

Q: And the kcat/Km?
A: 1.19e+06 M⁻¹ s⁻¹
